Earlier results as cited in patent US20160311911A1, “METHODS FOR TREATING ALLERGIC AIRWAY INFLAMMATION” (priority 2015, published 2016).

Protein sequences, listed by entry. Tags and fused reporters are not part of them.
UniProt P25025, whole entry: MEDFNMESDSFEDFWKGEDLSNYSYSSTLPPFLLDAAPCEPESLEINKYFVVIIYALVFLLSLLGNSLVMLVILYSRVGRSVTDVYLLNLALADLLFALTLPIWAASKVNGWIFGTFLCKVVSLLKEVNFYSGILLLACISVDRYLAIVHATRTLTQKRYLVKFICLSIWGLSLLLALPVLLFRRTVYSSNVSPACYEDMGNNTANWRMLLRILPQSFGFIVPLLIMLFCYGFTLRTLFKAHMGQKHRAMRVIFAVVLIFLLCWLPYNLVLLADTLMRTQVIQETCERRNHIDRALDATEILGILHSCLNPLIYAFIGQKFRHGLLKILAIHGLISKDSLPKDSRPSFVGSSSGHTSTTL

Target: CXCR2 (Homo sapiens, UniProt P25025)
Conditions: human subjects with severe asthma; reference 48; cited from earlier work

CC[C@@H](Nc1c(Nc2cccc(C(=O)N(C)C)c2O)c(=O)c1=O)c1ccc(C)o1 [SCH 527123]
asthma exacerbations: reduced
